Measured values published in BindingDB's records for PubMed 1501121 (Sanofi Recherche, 1992).

By UniProt entry, the sequences of proteins in these tests, tags left out.
UniProt P14842, whole entry: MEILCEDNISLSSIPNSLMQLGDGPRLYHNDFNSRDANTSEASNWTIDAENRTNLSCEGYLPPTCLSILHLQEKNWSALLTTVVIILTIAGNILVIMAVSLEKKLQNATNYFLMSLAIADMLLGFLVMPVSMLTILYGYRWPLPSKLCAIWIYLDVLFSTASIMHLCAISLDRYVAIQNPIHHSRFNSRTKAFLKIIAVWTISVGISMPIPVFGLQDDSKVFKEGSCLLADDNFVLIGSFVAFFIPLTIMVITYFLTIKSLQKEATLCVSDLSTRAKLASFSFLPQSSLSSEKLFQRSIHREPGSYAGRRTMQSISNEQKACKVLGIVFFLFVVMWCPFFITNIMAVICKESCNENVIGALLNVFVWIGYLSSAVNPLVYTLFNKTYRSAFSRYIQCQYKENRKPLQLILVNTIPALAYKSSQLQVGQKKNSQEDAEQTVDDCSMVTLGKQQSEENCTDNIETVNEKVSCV

Molecular target: 5-hydroxytryptamine receptor 2A (Rattus norvegicus, UniProt P14842)

- Ki: 58.1 nM
SMILES: Cc1nc2sccn2c(=O)c1CCN1CCC(=C(c2ccc(F)cc2)c2ccc(F)cc2)CC1
